This test addresses Sodium-dependent dopamine transporter (Rattus norvegicus, UniProt P23977). Put plainly: Displacement of [3H]WIN-35428 from DAT in rat caudate-putamen by scintillation counting. It counts as tissue-based.

Chains of the proteins cited; added tags and fusions are not shown.
UniProt P23977, whole entry: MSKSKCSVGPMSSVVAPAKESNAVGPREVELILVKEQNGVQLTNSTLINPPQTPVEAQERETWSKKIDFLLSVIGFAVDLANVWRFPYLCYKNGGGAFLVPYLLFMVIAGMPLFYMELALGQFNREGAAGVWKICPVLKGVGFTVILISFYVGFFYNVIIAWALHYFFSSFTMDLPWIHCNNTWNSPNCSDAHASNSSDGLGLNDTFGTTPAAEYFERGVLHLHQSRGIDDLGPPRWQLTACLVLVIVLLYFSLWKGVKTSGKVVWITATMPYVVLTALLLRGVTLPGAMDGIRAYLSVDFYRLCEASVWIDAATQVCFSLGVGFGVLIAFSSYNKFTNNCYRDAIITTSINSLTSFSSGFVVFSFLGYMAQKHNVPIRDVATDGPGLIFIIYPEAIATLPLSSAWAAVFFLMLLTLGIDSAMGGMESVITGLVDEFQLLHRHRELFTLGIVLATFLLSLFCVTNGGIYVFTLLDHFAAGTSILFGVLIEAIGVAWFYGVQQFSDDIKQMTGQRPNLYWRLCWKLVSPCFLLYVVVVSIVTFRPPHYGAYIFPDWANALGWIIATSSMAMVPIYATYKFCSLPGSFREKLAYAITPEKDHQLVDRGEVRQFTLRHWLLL

As usually defined, the Ki is the dissociation constant of the complex between target and ligand, obtained from inhibition or displacement.

With `CN(C)CCCC1(c2ccc(F)cc2)OCc2cc(C#N)ccc21` (racemic) [CITALOPRAM], the affinity, expressed as Ki, was 9.27 µM. For `CN(C)CCC[C@@]1(c2ccc(F)cc2)OCc2cc(C#N)ccc21` [ESCITALOPRAM], affinity was put at a Ki of 8.15 µM.

Values taken from ChEMBL document CHEMBL1212898 (J Med Chem, 2010).
